Measurements published in US6652633B2, “Fire retardant” (Arch Wood Protection, Inc., priority 2001, dated 2003).

Assay: potentiometric titration against 0.1 N NaOH with mannitol complexation (equivalence points)
Settings: potentiometric titration of GUP/boric acid solutions, samples complexed with mannitol

Substance: phosphoric acid-dicyandiamide salt
- pKa (equivalence point): approximately 3.20
- pKa (equivalence point) (listed as dicyandiamide/phosphoric acid salt): about 3.2
- pKa (equivalence point) (listed as salt of dicyandiamide and phosphoric acid): 3.2
